The chains behind the UniProt entries cited, without tags or fusion partners.
UniProt P35222, whole entry: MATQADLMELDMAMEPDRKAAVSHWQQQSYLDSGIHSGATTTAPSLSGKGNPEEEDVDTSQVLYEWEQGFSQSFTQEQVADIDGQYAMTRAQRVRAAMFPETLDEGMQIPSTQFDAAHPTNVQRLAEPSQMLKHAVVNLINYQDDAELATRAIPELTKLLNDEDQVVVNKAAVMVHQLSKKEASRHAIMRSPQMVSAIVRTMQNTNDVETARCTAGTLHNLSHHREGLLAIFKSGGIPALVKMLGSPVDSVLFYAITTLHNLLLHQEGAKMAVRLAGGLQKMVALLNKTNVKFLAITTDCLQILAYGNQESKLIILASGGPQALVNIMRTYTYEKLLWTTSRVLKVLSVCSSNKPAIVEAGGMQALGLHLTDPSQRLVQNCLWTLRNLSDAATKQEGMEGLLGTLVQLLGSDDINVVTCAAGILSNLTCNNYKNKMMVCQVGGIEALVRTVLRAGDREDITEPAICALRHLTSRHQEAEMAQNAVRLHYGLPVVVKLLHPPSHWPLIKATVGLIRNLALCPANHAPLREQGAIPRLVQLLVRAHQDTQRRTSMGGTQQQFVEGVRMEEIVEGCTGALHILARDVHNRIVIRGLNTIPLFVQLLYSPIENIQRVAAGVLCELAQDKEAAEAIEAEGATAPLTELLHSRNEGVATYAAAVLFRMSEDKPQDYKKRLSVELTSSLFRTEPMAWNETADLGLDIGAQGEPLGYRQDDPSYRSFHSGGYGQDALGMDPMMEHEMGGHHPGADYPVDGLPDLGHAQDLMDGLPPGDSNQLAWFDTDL

According to patent publication US20240360179A1, “STAPLED PEPTIDES AND METHODS THEREOF” (FOG PHARMACEUTICALS, INC., priority 2021, published 2024):

These substances were tested against T1, full-length B-Catenin (Uniprot ID P35222) (Homo sapiens, UniProt P35222). Conditions: competition fluorescence polarization; read-out: beta-Catenin FP IC50.
T1 construct: 10 nM full-length B-Catenin (Uniprot ID P35222)
Assay type: binding

Substance	IC50 [nM]
Ac-PL3-Asp-Npg-B5-Asp-3COOHF-Aib-Ala-Phe-Lys*3-PyrS2-hCbA-BztA-GlnR*3-Ala-NH2 [I-1317]	< 50
Ac-PL3-Asp-Npg-B5-Asp-3COOHF-Aib-Ala-Phe-Lys*3-PyrS2-hCbA-BztA-GlnR*3-Val-Glu-Ala-NH2 [I-1345]	< 50
Ac-PL3-Asp-Npg-B5-Asp-3COOHF-Aib-Ala-Phe-Lys*3-PyrS2-hCha-34ClF-GlnR*3-Ala-NH2 [I-1322]	< 50
Ac-PL3-Asp-Npg-B5-Asp-3COOHF-Aib-Ala-Phe-Lys*3-PyrS2-hCha-34ClF-GlnR*3-Val-Glu-Ala-NH2 [I-1350]	< 50
Ac-PL3-Asp-Npg-B5-Asp-3COOHF-Aib-Ala-Phe-Lys*3-PyrS2-hCha-BztA-GlnR*3-Ala-NH2 [I-1319]	50 to 200
Ac-PL3-Asp-Npg-B5-Asp-3COOHF-Aib-Ala-Phe-Lys*3-PyrS2-hCha-BztA-GlnR*3-Val-Glu-Ala-NH2 [I-1347]	< 50
Ac-PL3-Asp-Npg-B5-Asp-3COOHF-Aib-Ala-Phe-Lys*3-PyrS2-hCypA-34ClF-GlnR*3-Ala-NH2 [I-1321]	< 50
Ac-PL3-Asp-Npg-B5-Asp-3COOHF-Aib-Ala-Phe-Lys*3-PyrS2-hCypA-34ClF-GlnR*3-Val-Glu-Ala-NH2 [I-1349]	< 50
Ac-PL3-Asp-Npg-B5-Asp-3COOHF-Aib-Ala-Phe-Lys*3-PyrS2-hCypA-BztA-GlnR*3-Ala-NH2 [I-1318]	< 50
Ac-PL3-Asp-Npg-B5-Asp-3COOHF-Aib-Ala-Phe-Lys*3-PyrS2-hCypA-BztA-GlnR*3-Val-Glu-Ala-NH2 [I-1346]	< 50
Ac-PL3-Asp-Npg-B5-Asp-3COOHF-Aib-Ala-Phe-Lys*3-PyrS2-hPhe-34ClF-GlnR*3-Ala-NH2 [I-1308]	< 50
Ac-PL3-Asp-Npg-B5-Asp-3COOHF-Aib-Ala-Phe-Lys*3-PyrS2-hPhe-BztA-GlnR*3-Ala-NH2 [I-1305]	50 to 200
Ac-PL3-Asp-Npg-B5-Asp-3COOHF-Aib-Ala-Phe-Lys*3-PyrS2-hhLeu-34ClF-GlnR*3-Ala-NH2 [I-1307]	< 50
Ac-PL3-Asp-Npg-B5-Asp-3COOHF-Aib-Ala-Phe-Lys*3-PyrS2-hhLeu-BztA-GlnR*3-Ala-NH2 [I-1304]	< 50
Ac-PL3-Asp-Npg-B5-Asp-3COOHF-Aib-Ala-Phe-Lys*3-PyrS2-hhSer-34ClF-GlnR*3-Ala-NH2 [I-1309]	< 50
Ac-PL3-Asp-Npg-B5-Asp-3COOHF-Aib-Ala-Phe-Lys*3-PyrS2-hhSer-BztA-GlnR*3-Ala-NH2 [I-1306]	< 50
Ac-PL3-Asp-Npg-B5-Asp-3COOHF-Aib-Ala-Phe-Lys*3-PyrS2-hnLeu-2NapA-GlnR*3-Ala-NH2 [I-767]	< 50
Ac-PL3-Asp-Npg-B5-Asp-3COOHF-Aib-Ala-Phe-Lys*3-PyrS2-hnLeu-3BrF-GlnR*3-Ala-NH2 [I-765]	50 to 200
Ac-PL3-Asp-Npg-B5-Asp-3COOHF-Aib-Ala-Phe-Lys*3-PyrS2-hnLeu-34ClF-GlnR*3-Ala-NH2 [I-761]	< 50
Ac-PL3-Asp-Npg-B5-Asp-3COOHF-Aib-Ala-Phe-Lys*3-PyrS2-hnLeu-34ClF-GlnR*3-Leu-Ser-NH2 [I-956]	< 50
Ac-PL3-Asp-Npg-B5-Asp-3COOHF-Aib-Ala-Phe-Lys*3-PyrS2-hnLeu-34MeF-GlnR*3-Ala-NH2 [I-763]	< 50
Ac-PL3-Asp-Npg-B5-Asp-3COOHF-Aib-Ala-Phe-Lys*3-PyrS2-hnLeu-RbMe2NapA-GlnR*3-Ala-NH2 [I-769]	< 50
Ac-PL3-Asp-Npg-B5-Asp-3COOHF-Aib-Ala-Phe-Lys*3-PyrS2-hnLeu-SbMeBzta-GlnR*3-Ala-NH2 [I-773]	50 to 200
Ac-PL3-Asp-Npg-B5-Asp-3COOHF-Aib-Ala-Phe-Lys+3-PyrS2-[2IAPAc]2NH2F-BztA-GlnR*3-Ala-NH2 [I-1667]	50 to 200
Ac-PL3-Asp-Npg-B5-Asp-3COOHF-Aib-Ala-Phe-Lys+3-PyrS2-[3PyAc]2NH2F-BztA-GlnR*3-Ala-NH2 [I-1670]	< 50
